Experimental data: US20240034729A9, “HETEROCYCLIC COMPOUND, INTERMEDIATE, PREPARATION METHOD THEREFOR AND APPLICATION THEREOF” (WUHAN LL SCIENCE AND TECHNOLOGY DEVELOPMENT CO., LTD., priority 2018, published 2024)

By UniProt entry, the sequences of proteins in these tests, tags left out. Where a name states a change or a piece, a line headed by the entry shows the natural chain unless it says otherwise.
UniProt P56373: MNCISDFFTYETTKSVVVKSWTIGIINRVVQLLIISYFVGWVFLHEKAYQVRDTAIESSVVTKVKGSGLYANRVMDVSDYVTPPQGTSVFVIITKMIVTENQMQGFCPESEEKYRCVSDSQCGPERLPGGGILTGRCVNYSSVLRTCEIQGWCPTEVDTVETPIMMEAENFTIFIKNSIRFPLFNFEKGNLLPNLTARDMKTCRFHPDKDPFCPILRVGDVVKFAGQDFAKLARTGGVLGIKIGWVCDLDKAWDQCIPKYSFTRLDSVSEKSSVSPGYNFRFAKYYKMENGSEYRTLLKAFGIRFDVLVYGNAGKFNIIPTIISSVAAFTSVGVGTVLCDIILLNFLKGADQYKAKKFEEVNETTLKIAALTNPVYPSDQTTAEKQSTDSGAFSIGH
UniProt Q9UBL9: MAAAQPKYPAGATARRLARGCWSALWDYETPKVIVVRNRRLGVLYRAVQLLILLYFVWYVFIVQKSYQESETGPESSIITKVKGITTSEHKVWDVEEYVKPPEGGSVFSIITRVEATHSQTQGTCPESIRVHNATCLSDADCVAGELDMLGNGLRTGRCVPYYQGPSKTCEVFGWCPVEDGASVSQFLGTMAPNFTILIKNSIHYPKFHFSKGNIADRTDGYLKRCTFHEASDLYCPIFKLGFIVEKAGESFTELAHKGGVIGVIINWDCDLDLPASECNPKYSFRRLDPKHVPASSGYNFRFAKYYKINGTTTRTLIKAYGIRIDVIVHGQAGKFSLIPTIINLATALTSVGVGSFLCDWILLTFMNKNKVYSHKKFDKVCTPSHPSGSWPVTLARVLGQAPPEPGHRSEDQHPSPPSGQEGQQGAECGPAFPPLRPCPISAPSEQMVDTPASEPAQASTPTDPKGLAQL

What was measured:
[1] = target: hP2X2/3 (heterodimeric receptors formed by human purinergic P2X receptors subtype 2 and subtype 3) (Homo sapiens (Human), UniProt P56373+Q9UBL9); test: FLIPR calcium assay, hP2X2/3 expressed in HEK293 cells (P2X2/3 receptor selectivity); assay type: cell-based
[2] = target: hP2X3 (human purinergic P2X receptor subtype 3) (Homo sapiens (Human), UniProt P56373); test: FLIPR calcium assay, hP2X3 expressed in HEK293 cells; assay type: cell-based; conditions: HEK293 cells expressing hP2X3, agonist BZ-ATP 2.5 μM; class symbols; read-out: P2X3 IC50

In the case of CC(=O)N1CCO[C@@H](Cc2c(-c3c(F)cc(-n4cccn4)cc3F)nc3cc(Cl)ccn23)C1 [Compound 160, (S)-1-(2-((7-chloro-2-(2,6-difluoro-4-(1H-pyrazol-1-yl)phenyl)imidazo[1,2-a]pyridin-3-yl)methyl)morpholino)ethan-1-one], the IC50 [1] is reported as greater than 60 µM, the Folds of selectivity ([1]; (IC50 for P2X2/3)/(IC50 for P2X3), class symbols) is reported as “A (A: folds of selectivity >1000)” and the IC50 [2] is reported as no more than 0.01 µM.
